Data published in patent publication US20240366649A1, “4-ETHYNYL-3-HYDROXY-TETRAHYDROFURANYL-ADENINE PHOSPHORAMIDATES AND RELATED COMPOUNDS AND THEIR USE IN TREATING MEDICAL CONDITIONS” (ROME THERAPEUTICS, INC., priority 2021, published 2024).
Values joined by “and” are separate entries in the source; they are usually repeats but may differ in a detail not shown here. Identical values can stand only once.

Tests used:
[1] = system: IFN production in THP1 TREX1 KO cells; test: Cellular assay for altering IFN production in THP1 TREX1 KO cells; settings: for EC50: read-out: IFN EC50, inducers of IFN; for EC50 / IC50: in the presence of 1 μM 5-aza-2′-deoxycytidine; for EC50 / Maximum IFN Induction / IC50: five days; for Maximum IFN Induction: maximum-fold IFN induction, 1 μM 5-aza-2′-deoxycytidine; for Concentration at Max Induct.: lowest concentration at which the maximum-fold IFN induction was observed; for IC50: read-out: IFN IC50, inhibitors of IFN
Description: (§1) THP1-Dual™ KO-TREX1 cells were purchased from Invivogen (cat #thpd-kotrex). The THP1-Dual™ KO-TREX1 cells were cultured in RPMI 1640, 10% heat-inactivated fetal bovine serum, 25 mM HEPES, 10 μg/mL Blasticidin, and […] Zeocin. THP1-Dual™ KO-TREX cells were treated with a dose titration of test compound in the presence of 1 μM 5-aza-2′-deoxycytidine (Sigma, cat #189825). Type 1 Interferon and cell viability were assessed after five days of treatment.
Stock solution of test compound was prepared in DMSO followed by a three-fold dilution in DMSO. Additional 50× dilution was prepared in cell culture media for each dilution. 10 μL of diluted test compound was then added to a 384-well plate.
(§2) THP1-Dual™ KO-TREX1 cells were treated with 1 μM 5-aza-2′-deoxycytidine. THP1-Dual™ KO-TREX1 cells (50 μL) were added to each well of the 384-well plate containing test compound titration at 10,000 cells/well. Cells were incubated at 37° C., 5% CO2 in a humidified incubator for five days. On day five, 20 μL of cell supernatant was transferred to a 384-well, white-walled plate, followed by addition to each well of 50 μL of QUANTI-LUC solution containing stabilizer. Luminescence was detected on a plate reader according to manufacturer's instructions.
(§3) For certain compounds, the assay was run in a 96-well format, with the following modifications: • 190 μL, instead of 50 μL, of cells were added to each well, to provide 50,000 cells/well, instead of 10,000 cells/well, • Cells were incubated for 6 days, instead of 5 days, • 25 μL, instead of 20 μL, of cell supernatant was added to the white-walled plate for QUANT-LUC treatment; and • 25 μL, instead of 30 μL, of CellTiter-Glo was added to assess cell viability.
Percent inhibition of interferon was calculated using the following analysis: (Average DMSO-Sample)/(Average DMSO-Average 30 μM control reagent)*100. The control reagent for inhibition of interferon was a specific nucleoside reverse-transcriptase inhibitor with molecular weight <600 a.m.u. Percent induction of interferon was calculated using the following analysis: (Sample-Average DMSO)/(10 μM control reagent-Average DMSO)*100. The control reagent for induction of interferon was compound 8 (4′-ethynyl-2-chloro-2′-deoxyadenosine).

[2] = target: LINE1 reverse transcriptase (Homo sapiens, UniProt O00370); test: Stable artificial-intron Cis LINE1 reporter assay; settings: HeLa L1 artificial-intron reporter cells, doxycycline-induced, 72 h, Firefly luciferase activity
[3] = system: THP1-Dual™ KO-TREX1 cells; test: CellTiter-Glo cell viability in THP1-Dual KO-TREX1 cells; settings: read-out: CTG IC50; CellTiter-Glo inhibition of cell viability, after five days of treatment
Description: as §1, §2, §3
The remaining cells were assessed for cell viability by adding 30 μl of CellTiter-Glo (Promega, G9683) solution to each well, and placed on a shaker for 10 minutes at room temperature. Luminescence was detected on a plate reader, according to manufacturer's instructions. Percent inhibition of cell viability using CellTiter-Glo was calculated using the following analysis: (Average DMSO-Sample)/(Average DMSO-Average 20 μM control reagent)*100. The control reagent was Z-Leu-Leu-leucinal (see, for example, https://pubchem.ncbi.nlm.nib.gov/compound/462382).

SMILES | EC50 [1] | IC50 [2] | IC50 [3] | Maximum IFN Induction [1] | Concentration at Max Induct. [1] | IC50 [1]
C#C[C@]1(COP(=O)(N[C@@H](C)C(=O)OC)Oc2ccc(Br)cc2)O[C@@H](n2cnc3c(N)nc(F)nc32)C[C@@H]1O (stereo partly drawn) | > 10 µM | < 0.05 µM | – | – | – | –
C#C[C@]1(COP(=O)(N[C@@H](C)C(=O)OCc2ccccc2)Oc2ccccc2)O[C@@H](n2cnc3c(N)nc(Cl)nc32)C[C@@H]1O (stereo partly drawn) | < 1 µM | < 0.05 µM | > 10 µM | >> (values from 1.50 to 2.00) | – | –
C#C[C@]1(COP(=O)(N[C@@H](C)C(=O)OCC)Oc2ccccc2)O[C@@H](n2cnc3c(N)nc(Cl)nc32)C[C@@H]1O (stereo partly drawn) | < 1 µM and 1 to 10 µM | 0.05 to 0.5 µM | > 10 µM | >> (values from 1.50 to 2.00) | 10 µM | –
C#C[C@]1(COP(=O)(N[C@@H](C)C(=O)OCC)Oc2ccccc2)O[C@@H](n2cnc3c(N)nc(F)nc32)C[C@@H]1O (stereo partly drawn) | > 10 µM | < 0.05 µM | – | – | – | –
C#C[C@]1(COP(=O)(NC(C)(C)C(=O)OC(C)C)Oc2ccccc2)O[C@@H](n2cnc3c(N)nc(F)nc32)C[C@@H]1O (stereo partly drawn) | > 10 µM | < 0.05 µM and 0.05 to 0.5 µM | > 10 µM | – | – | > 5 µM
C#C[C@]1(COP(=O)(N[C@@H](C)C(=O)OCC)Oc2ccccc2)O[C@@H](n2cnc3c(N)ncnc32)C[C@@H]1O (stereo partly drawn) | – | < 0.05 µM | – | – | – | –
C#C[C@]1(COP(=O)(N[C@H](C)C(=O)OC(C)C)OCOC(=O)OC(C)C)O[C@@H](n2cnc3c(N)nc(Cl)nc32)C[C@@H]1O (stereo partly drawn) | > 10 µM | > 0.5 µM | – | – | – | –
C#C[C@]1(COP(=O)(N[C@H](C)C(=O)OC(C)C)OCOC(=O)OC(C)C)O[C@@H](n2cnc3c(N)nc(F)nc32)C[C@@H]1O (stereo partly drawn) | – | > 0.5 µM | – | – | – | –
C#C[C@]1(COP(=O)(N[C@@H](C)C(=O)OC)Oc2ccc(Br)cc2)O[C@@H](n2cnc3c(N)nc(Cl)nc32)C[C@@H]1O (stereo partly drawn) | 1 to 10 µM | < 0.05 µM | > 10 µM | >> (values from 1.50 to 2.00) | 10 µM and 6.7 µM | –
C#C[C@@]12COP(=O)(OC(C)C)O[C@H]1C[C@H](n1cnc3c(N)nc(Cl)nc31)O2 (stereo partly drawn) [IV-1] | < 1 µM | < 0.05 µM and 0.05 to 0.5 µM | > 10 µM | > (values from 1.00 to less than 1.50) | 1.67 µM | –
C#C[C@]1(COP(=O)(N[C@@H](C)C(=O)OCc2ccccc2)Oc2ccccc2)O[C@@H](n2cnc3c(N)nc(F)nc32)C[C@@H]1O (stereo partly drawn) | – | < 0.05 µM | 1.2 µM | – | – | –
C#C[C@]1(COP(=O)(N[C@@H](C)C(=O)OC(C)C)OCOC(=O)OC(C)C)O[C@@H](n2cnc3c(N)nc(F)nc32)C[C@@H]1O (stereo partly drawn) | – | 0.05 to 0.5 µM | > 10 µM | – | – | > 5 µM
